Test results published in publication PMC5286426, “The Calcium-Dependent Switch Helix of L-Plastin Regulates Actin Bundling” (Scientific Reports, 2017).

Legend:
[1] = biological target: human platelet actin (F-actin) (human) (UniProt P60709); experiment: co-sedimentation; low-speed pelleting (12,000 g, 15 min) of actin bundles; 6 uM F-actin, 3 uM LPL, 20 mM Tris pH 7.5, 100 mM KCl, 1 mM MgCl2, 0.1 mM CaCl2, 0.1 mM ATP, with 5 mM EGTA; room temperature, 1 h; pellet read by SDS-PAGE
[2] = biological target: human platelet actin (F-actin) (human) (UniProt P60709); experiment: co-sedimentation; low-speed pelleting (12,000 g, 15 min) of actin bundles; 6 uM F-actin, 3 uM LPL, 20 mM Tris pH 7.5, 100 mM KCl, 1 mM MgCl2, 0.1 mM CaCl2, 0.1 mM ATP, without EGTA (Ca2+); room temperature, 1 h; pellet read by SDS-PAGE

- percent of LPL in the pellet [1]: 70%
- percent of LPL in the pellet [2]: 50%
Substance: full-length human L-plastin (from UniProt P13796 1-627) (natural protein)
